Earlier results on 1 substance are cited in patent US10927398B2, “Compositions for CYP450 phenotyping using saliva samples” (Concordia University, Inc., priority 2015, dated 2021).

The conditions of series [1]: Table of Exemplary Drugs, CYP3A4; cited from earlier work.
In another series the test system is plasma protein. The following applies: Table of Exemplary Drugs, CYP3A4; cited from earlier work.

With Maraviroc [Maraviroc (Selzentry)], in series [1], the “HALF-LIFE” value was 14 to 18 h. Further, the “PLASMA PROTEIN BINDING” value in the series with plasma protein was 76%.
